According to US12110286B2, “Benzimidazolone derived inhibitors of BCL6” (Cancer Research Technology Limited, priority 2017, dated 2024):

Target: Trx-6×His-BCL6 (human BCL6 BTB domain covering amino-acid sequence 5-129) (Homo sapiens (Human), UniProt P41182)
Assay: HTRF in vitro assay (BCL6 / BCOR-AF633 peptide)
Assay type: binding
Settings: further generated data; 1 nM Trx-6×His-BCL6, 300 nM BCOR-AF633 peptide, 0.5 nM anti-6×His-Terbium cryptate
Protocol: The % inhibition at each concentration was calculated by normalising FRET ratio to the appropriate high (DMSO with all reagents) and low (DMSO without BCL6) controls.

Row | SMILES | HTRF pIC50
1 | Cn1c(=O)n(CCC(C)(C)O)c2cc(Nc3nc(Cl)ncc3Cl)ccc21 [Example 1n, 5-[(2,5-dichloropyrimidin-4-yl)amino]-3-(3-hydroxy-3-methyl-butyl)-1-methyl-benzimidazol-2-one] | 5.82
2 | C[C@H](O)CCn1c(=O)n(C)c2ccc(Nc3ccnc(Cl)c3C#N)cc21 [Example 10h] | 5.32
3 | Cn1c(=O)n(CCC(C)(C)O)c2cc(Nc3ncnc(Cl)c3C#N)ccc21 [Example 1p, 4-chloro-6-[[3-(3-hydroxy-3-methyl-butyl)-1-methyl-2-oxo-benzimidazol-5-yl]amino]-pyrimidine-5-carbonitrile] | 5.56
4 | C[C@@H](O)CCn1c(=O)n(C)c2ccc(Nc3ccnc(Cl)c3C#N)cc21 [Example 10i] | 5.81
